These results are taken from PubChem BioAssay AID923 (National Center for Advancing Translational Sciences (NCATS), 2007).

Only a part is listed here, and it is no random draw. Activity calls are given as the source filed them. The call rests on the fitted dose curve; in most records, active means well fitted activation curve with a large enough effect; inconclusive means small, poorly fitted or top-dose-only effect; inactive means flat fitted curve, though single readings scatter.

The nature of the test: qHTS Assay for Allosteric/Competitive Inhibitors of Caspase-1: Spectroscopic Profiling in AFC Spectral Region. Further: 0% is about no effect. The following applies: compound fluorescence, AFC spectral region (405/520 nm); at 57.5 µM (top of the series) unless noted.
With `NC(=O)Nc1ccc([As](=O)(O)O)cc1`, the fluorescence increase is inactive: -1.56% [at 25.7 µM].

In the case of `CN(C(=O)Cc1ccc(Cl)c(Cl)c1)[C@H]1CCCC[C@@H]1N1CCCC1`, the fluorescence increase was inactive: -1.67%.
